Experimental data from patent publication US20110046108A1, “PYRIMIDINE DERIVATIVES” (AstraZeneca AB, priority 2006, published 2011).
pIC50: −log10 of the molar value.

Amino acid sequences for entries named in this document (tags omitted). Residues count along the entry.
UniProt P29317, 24-976: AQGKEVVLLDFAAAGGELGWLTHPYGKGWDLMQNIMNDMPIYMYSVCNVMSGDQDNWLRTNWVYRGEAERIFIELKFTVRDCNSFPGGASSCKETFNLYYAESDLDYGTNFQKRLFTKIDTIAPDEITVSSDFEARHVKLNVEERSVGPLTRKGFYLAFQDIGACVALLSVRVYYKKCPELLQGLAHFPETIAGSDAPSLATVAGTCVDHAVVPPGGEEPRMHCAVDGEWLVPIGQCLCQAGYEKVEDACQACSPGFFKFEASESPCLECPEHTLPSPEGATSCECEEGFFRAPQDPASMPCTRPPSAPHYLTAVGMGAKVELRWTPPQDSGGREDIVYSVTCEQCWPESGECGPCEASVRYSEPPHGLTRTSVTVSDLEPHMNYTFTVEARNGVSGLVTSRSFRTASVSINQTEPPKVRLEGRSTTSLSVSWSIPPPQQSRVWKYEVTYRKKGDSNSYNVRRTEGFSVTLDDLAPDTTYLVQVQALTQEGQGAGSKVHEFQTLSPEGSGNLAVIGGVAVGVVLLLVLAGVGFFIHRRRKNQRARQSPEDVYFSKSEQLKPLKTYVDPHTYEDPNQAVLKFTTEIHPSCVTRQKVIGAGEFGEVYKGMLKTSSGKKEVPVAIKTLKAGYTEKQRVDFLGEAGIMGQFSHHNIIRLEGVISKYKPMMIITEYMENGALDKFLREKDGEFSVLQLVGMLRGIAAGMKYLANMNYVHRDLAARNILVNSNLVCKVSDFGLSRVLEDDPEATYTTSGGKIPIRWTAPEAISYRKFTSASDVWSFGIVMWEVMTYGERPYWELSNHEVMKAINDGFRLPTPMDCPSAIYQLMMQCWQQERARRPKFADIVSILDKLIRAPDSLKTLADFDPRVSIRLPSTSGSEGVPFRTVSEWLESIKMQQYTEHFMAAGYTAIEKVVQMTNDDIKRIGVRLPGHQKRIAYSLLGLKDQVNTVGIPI

Target: EphA2 kinase (Homo sapiens, UniProt P29317)
Experiment: biochemical

COc1cc(Nc2nccc(Nc3c(Cl)ccc4c3OCO4)n2)cc(OC)c1OC [Example 1, N˜4˜-(5-Chloro-1,3-benzodioxol-4-yl)-N˜2˜-(3,4,5-trimethoxyphenyl)pyrimidine-2,4-diamine] showed a pIC50 of 7.82.
